Source: ChEMBL document CHEMBL4732134, “Identification of N-phenyl-3-methoxy-4-pyridinones as orally bioavailable H receptor antagonists and β-amyloid aggregation inhibitors for the treatment of Alzheimer's disease” (Eur J Med Chem, 2021)

Protein sequences, listed by entry. Tags and fused reporters are not part of them. Lines headed by an entry give the natural chain unless they say otherwise; changes in a name come on top.
UniProt Q9Y5N1: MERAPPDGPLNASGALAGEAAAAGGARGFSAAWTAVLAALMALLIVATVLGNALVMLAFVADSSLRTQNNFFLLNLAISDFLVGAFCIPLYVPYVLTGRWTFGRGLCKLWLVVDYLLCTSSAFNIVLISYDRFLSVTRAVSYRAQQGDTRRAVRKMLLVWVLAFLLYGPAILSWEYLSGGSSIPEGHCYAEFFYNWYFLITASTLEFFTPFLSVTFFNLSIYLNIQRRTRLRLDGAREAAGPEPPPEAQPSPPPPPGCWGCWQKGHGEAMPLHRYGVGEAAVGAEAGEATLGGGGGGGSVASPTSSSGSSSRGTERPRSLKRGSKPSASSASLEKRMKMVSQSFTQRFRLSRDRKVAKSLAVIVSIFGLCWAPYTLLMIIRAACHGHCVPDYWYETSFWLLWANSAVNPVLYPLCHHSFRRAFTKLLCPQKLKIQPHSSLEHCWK

Biological target: Histamine H3 receptor (Homo sapiens, UniProt Q9Y5N1)
Test: Antagonist activity at human histamine H3 receptor expressed in HEK293 cells preincubated for 5 mins followed by forskolin-stimulation and measured after 5 hrs by CRE-driven luciferase reporter gene assay
Assay type: functional, cell-based

NC(=NCc1ccc(Cl)cc1)SCCCc1cnc[nH]1 [CLOBENPROPIT]
IC50: 1.15 nM
